Earlier results as cited in patent publication US8940724B2, “Quinoline derivitives and their uses” (Amgen Inc., priority 2009, dated 2015).

The chains behind the UniProt entries cited, without tags or fusion partners.
UniProt P42338, whole entry, species assumed: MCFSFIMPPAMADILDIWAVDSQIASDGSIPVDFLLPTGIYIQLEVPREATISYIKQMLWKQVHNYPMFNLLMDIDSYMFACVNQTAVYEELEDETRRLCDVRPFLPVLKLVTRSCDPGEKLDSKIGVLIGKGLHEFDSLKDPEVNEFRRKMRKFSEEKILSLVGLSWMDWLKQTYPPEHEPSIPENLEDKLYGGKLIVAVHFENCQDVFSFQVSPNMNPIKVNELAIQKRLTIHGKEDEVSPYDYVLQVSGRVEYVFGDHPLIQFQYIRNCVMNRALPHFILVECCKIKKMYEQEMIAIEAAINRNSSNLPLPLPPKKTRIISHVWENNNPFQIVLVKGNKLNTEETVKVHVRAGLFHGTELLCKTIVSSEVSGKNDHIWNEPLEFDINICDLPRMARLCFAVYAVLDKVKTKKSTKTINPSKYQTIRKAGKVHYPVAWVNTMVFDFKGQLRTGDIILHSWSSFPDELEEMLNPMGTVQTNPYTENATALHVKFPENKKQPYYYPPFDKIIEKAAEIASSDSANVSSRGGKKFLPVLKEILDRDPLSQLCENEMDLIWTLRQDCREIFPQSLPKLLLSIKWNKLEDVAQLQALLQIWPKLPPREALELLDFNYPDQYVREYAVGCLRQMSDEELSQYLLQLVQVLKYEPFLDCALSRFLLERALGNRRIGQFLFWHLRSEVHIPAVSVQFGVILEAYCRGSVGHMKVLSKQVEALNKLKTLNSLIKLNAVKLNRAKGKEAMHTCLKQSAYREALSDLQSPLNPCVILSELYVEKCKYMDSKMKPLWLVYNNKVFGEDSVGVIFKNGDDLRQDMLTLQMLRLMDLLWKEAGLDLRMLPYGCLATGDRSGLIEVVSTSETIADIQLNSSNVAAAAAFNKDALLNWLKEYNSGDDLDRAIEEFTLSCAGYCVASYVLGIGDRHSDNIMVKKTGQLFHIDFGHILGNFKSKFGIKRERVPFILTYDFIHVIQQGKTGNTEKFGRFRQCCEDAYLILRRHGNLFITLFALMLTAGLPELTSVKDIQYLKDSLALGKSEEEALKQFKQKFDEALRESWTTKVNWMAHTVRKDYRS

Target: p110β (Homo sapiens, UniProt P42338)
Conditions: read-out: potency on beta; cited from earlier work

Q: With `Cc1cc(C(C)Nc2ccccc2)c2nc(N3CCOCC3)cc(=O)n2c1` (stereo not shown) [TGX-221] as the molecule, how does the IC50 read?
A: 7 nM
